Structures can show the parent of a compound that is named as a salt.
How the values were obtained:
[1] = Body weight of xenograft mice as indicator of tolerability
[2] = target: MELK (Homo sapiens, UniProt Q14680); assay: Kinase assay (IMAP fluorescence polarization, FITC-labeled histone H3 peptide); assay type: biochemical; settings: 50 micro-M ATP
Protocol: MELK activity was determined in the presence or absence of compounds using fluorescein isothiocyanate-labeled (FITC-labeled) histone H3 peptide as a substrate. […] The serially diluted compounds, 0.8 ng/micro-L […] (Carna Biosciences) and 100 nM FITC-labeled histone H3 peptide were reacted in a reaction buffer (20 mM HEPES, 0.01% Tween-20, 0.3 mM MgCl2, 2 mM dithiothreitol, 50 micro-M ATP, pH 7.4) at room temperature for 1 hour. The reaction was stopped by the addition of three fold assay volume of progressive binding solution. […] IC50 values were calculated by nonlinear four parameter fit using SigmaPlot, version 10.0 (Systat Software, Inc.).

The chains behind the UniProt entries cited, without tags or fusion partners. Where a name states a change or a piece, a line headed by the entry shows the natural chain unless it says otherwise.
UniProt Q14680: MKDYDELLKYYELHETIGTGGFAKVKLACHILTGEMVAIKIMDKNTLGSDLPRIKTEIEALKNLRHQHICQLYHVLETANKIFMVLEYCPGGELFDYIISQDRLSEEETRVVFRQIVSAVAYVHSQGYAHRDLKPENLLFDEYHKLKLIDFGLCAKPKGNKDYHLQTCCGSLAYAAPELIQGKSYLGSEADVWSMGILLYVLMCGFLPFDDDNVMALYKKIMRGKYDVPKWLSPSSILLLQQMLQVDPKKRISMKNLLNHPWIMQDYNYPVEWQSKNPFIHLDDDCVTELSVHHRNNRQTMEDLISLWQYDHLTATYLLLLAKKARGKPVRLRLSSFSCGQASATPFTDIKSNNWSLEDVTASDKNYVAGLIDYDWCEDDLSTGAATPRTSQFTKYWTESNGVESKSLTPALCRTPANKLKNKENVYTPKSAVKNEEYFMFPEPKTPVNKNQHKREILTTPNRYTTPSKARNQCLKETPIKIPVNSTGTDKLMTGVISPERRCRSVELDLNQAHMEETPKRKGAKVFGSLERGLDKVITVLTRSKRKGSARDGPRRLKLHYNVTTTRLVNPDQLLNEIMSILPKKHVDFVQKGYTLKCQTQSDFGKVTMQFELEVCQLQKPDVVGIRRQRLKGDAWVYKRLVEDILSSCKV

Structure (SMILES) | Mean relative body weight after 14 days of administration (vs day 0) ([1]; A549 mice, 1 mg/kg intravenously once a day) | Mean relative body weight after 14 days of administration (vs day 0) ([1]; A549 mice, 5 mg/kg intravenously once a day) | Mean relative body weight after 14 days of administration (vs day 0) ([1]; A549 mice, 5 mg/kg orally once a day) | Mean relative body weight after 14 days of administration (vs day 0) ([1]; A549 mice, 10 mg/kg intravenously once a day) | Mean relative body weight after 14 days of administration (vs day 0) ([1]; A549 mice, 10 mg/kg orally once a day) | Mean relative body weight after 14 days of administration (vs day 0) ([1]; DU145 mice, 10 mg/kg orally once a day) | Mean relative body weight after 14 days of administration (vs day 0) ([1]; MDA-MB-231 mice, 10 mg/kg orally once a day) | Mean relative body weight after 14 days of administration (vs day 0) ([1]; MDA-MB-231 mice, 20 mg/kg intravenously once every two days) | Mean relative body weight after 14 days of administration (vs day 0) ([1]; MIAPaCa-2 mice, 10 mg/kg orally once a day) | IC50 [2]
CC(=O)c1cnc2ccc(-c3cc(Cl)c(O)c(Cl)c3)nc2c1N[C@H]1CC[C@H](CN(C)C)CC1 [Example 6, 1-{6-(3,5-Dichloro-4-hydroxyphenyl)-4-({trans-4-[(dimethylamino)methyl]cyclohexyl}amino)-1,5-naphthyridin-3-yl}ethanone dihydrochloride] | 1.06 | 1.03 | 0.99 | 1.00 | 0.98 | 0.96 | 0.89 | 0.93 | 0.97 | 0.0011 µM
CC(=O)c1cnc2ccc(-c3cc(Cl)c(O)c(Cl)c3)nc2c1N[C@H]1CC[C@@H](CN(C)C)CC1 [Example 94, 1-{6-(3,5-Dichloro-4-hydroxyphenyl)-4-({cis-4-[(dimethylamino)methyl]-cyclohexyl}amino)-1,5-naphthyridin-3-yl}ethanone dihydrochloride] | – | – | – | – | – | – | – | – | – | 0.0006 µM

From US9067937B2 (priority 2012, dated 2015)
